According to patent publication US5409692A, “Glucosyltransferase inhibitors, as well as dental caries prevention methods and anticarious foods using the same” (priority 1990, dated 1995):

System: glucosyltransferase
Test: Glucosyltransferase inhibition activity (insoluble glucan, absorbance at 550 nm)
Format: biochemical, S. mutans MT8148
Conditions: 0.15 ml of 2,000 ppm sample solution in 3 ml total volume; pH 6.0, 37° C., 3 hours; control water
Description: As an enzyme solution, was used an extract which was obtained by culturing S. mutans MT8148 strain on Todd-Hewitt medium and then extracting hyphae with 8M urea in accordance with the method proposed by Hamada et al. [S. Hamada et al., J. Gen. Microbiol., 35, 335- 344 (1999 )].
A reaction system was prepared by adding 0.15 ml of an aqueous solution of a sample, said solution having been prepared to contain the sample at the concentration of 2,000 ppm, the enzyme solution prepared from the S. mutans strain and water to 0.6 ml of 500 mM sodium phosphate buffer which had pH 6.0 and contained 5% of sucrose, 0.5% of dextran T10 and 0.5% of sodium azide. The water was added in an amount to give a total volume of 3 ml. They were reacted in a glass test tube. In the above measurement, the amount of the enzyme was set such that the absorbance at 550 nm became about 1.0 when reacted at 37° C. for 3 hours.
Resultant insoluble glucan was subjected to ultrasonic disintegration and the; absorbance (A) at 550 nm was measured. Using as control (B) the absorbance obtained from the use of water in place of the sample solution, the inhibition rate (%) was determined in accordance with the following calculation formula: [formula] (Measurement results ) […]

## O=C(O[C@@H]1Cc2c(O)cc(O)cc2O[C@@H]1c1cc(O)c(O)c(O)c1)c1cc(O)c(O)c(O)c1 [Epigallocatechin gallate]
  Inhibition rate, %: 17%
